## Antibody variant affinities, Ab-95 light chain, assay 2

Data: MIT Lincoln Laboratory AlphaSeq set, Engelhart et al. 2022, doi:10.1038/s41597-022-01779-4, as distributed in FLAb.

Antigen: PDVDLGDISGINAS, a 14-residue peptide of the SARS-CoV-2 spike HR2 region.

Parent: Ab-95, a human scFv built as VH, three GGGGS repeats, VL. Only the CDRs of the light chain vary.
VH: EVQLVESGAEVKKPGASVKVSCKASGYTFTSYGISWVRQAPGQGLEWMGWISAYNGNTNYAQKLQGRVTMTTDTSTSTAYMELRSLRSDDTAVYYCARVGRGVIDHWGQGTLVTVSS
VL: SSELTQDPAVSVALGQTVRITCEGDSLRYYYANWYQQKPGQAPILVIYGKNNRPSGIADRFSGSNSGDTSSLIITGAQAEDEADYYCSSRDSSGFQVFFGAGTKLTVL

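Phage display of a naive human antibody library on the peptide gave the parent. Library AAYL52 holds single substitutions and randomly drawn double and triple substitutions in the CDRs. Affinity was read by AlphaSeq, a pooled yeast mating assay with surface-displayed partners. Mating (16 h, 30 °C) was followed by selection of diploids and sequencing of their barcodes. Read counts were normalised to the haploid input and turned into Kd by a linear fit to BCL2-family pairs of known affinity, for each replicate. Each pool was mated in three replicate cultures.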

The parent's light chain CDRs are EGDSLRYYYAN, GKNNRPS, SSRDSSGFQVF; each variant's own CDRs replace them letter for letter. This list gathers variants with a substitution at F98 (VL, numbered from residue 1). Kd is apparent (estimated from mating counts) and averaged on the log scale over replicates with a signal. Smaller is tighter. "nd" marks a missing value. The strain was present, yet no cells mated with the target were sequenced in any replicate, which points to weak or no binding. In this assay the parent's reference entry averaged 200 nM; its copy inside this library read 180 nM. Three control strains display no target. For library AAYL52, 28% of the pairings with them gave a signal, with a median of 8.2 µM and one signal in twenty below 800 nM, so weak values seen in few replicates may be background. For each scFv, signals with the empty controls are counted beside the result.

With ELDSLRYYYAN / GKNNRPS / SSRDSSGAQVG the result was 4.7 µM (2 of 3 replicates; controls 2 of 9). The variant EGDSLRYKYAN / GKQNRPS / SSRDSSGFQVH gave 350 nM (3 of 3 replicates; controls 2 of 9). With EGDSLRYYYAN / GKNNRPS / FSRDSSGSQVC the result was 7.3 µM (1 of 3 replicates; controls 2 of 9). For EGDSLSYYYAN / GDNNRPS / SSRDSSGFQVE, the assay gave 6.6 µM (3 of 3 replicates; controls 4 of 9). With EGMSLRYYYAN / GKNNRPS / SSRDSWGFQVT the result was 2.6 µM (3 of 3 replicates; controls 4 of 9).

The variant EGDSLRYYYAN / GKNNRRT / SSRDSSGFQVK showed 13 µM (2 of 3 replicates; controls 4 of 9). For EGDSLRYYYAN / GKNNRPS / SMRDPSGFQVC, the assay gave 410 nM (3 of 3 replicates; controls 3 of 9). The variant EGDSLRYYYAN / GKNNIPS / SSRDSSGTQVP gave 4.2 µM (3 of 3 replicates; controls 6 of 9). The variant EGDSLRYYYKN / GKNNQPS / SSRDSSGFQVS gave nd (0 of 3 replicates; controls 5 of 9). With EGDSLRYYIAN / GKNNRPS / SSRDSSGFQVI the result was 9.9 µM (2 of 3 replicates; controls 4 of 9).

The variant EGKSLRYYYAN / GKNNRPS / SSRDSSGFQVV showed 2.0 µM (3 of 3 replicates; controls 5 of 9). With EGDSLRYYRAN / GKNNRES / SSRDSSGFQVG the result was 400 nM (3 of 3 replicates; controls 1 of 9). For EGDSLRYYYAN / GKNNRPS / SPRDSSGFLVQ, the assay gave 13 µM (2 of 3 replicates; controls 4 of 9). The variant EGDSLRYYYAA / GKNNRPS / SSRDSSGFQVD gave 3.3 µM (2 of 3 replicates; controls 4 of 9). The variant EGDSLRYYDAN / GKNNAPS / SSRDSSGFQVH gave 430 nM (3 of 3 replicates; controls 0 of 9).

The variant EGDSLRYHYAN / GKNNRPS / SSCDSSGFQVE gave 3.2 µM (1 of 3 replicates; controls 1 of 9). For EVDSLRYYYAN / GKNNRPY / SSRDSSGFQVT, the assay gave 8.7 µM (1 of 3 replicates; controls 2 of 9). The variant EGDSLRYYYAN / GKNNRPS / SSRDSSAFQVW showed 530 nM (3 of 3 replicates; controls 4 of 9). With EGDSLRYEYAN / GKNNRPS / SSRDVSGFQVC the result was 370 nM (3 of 3 replicates; controls 4 of 9). With EGPSLRYYYAN / QKNNRPS / SSRDSSGFQVC the result was 4.6 µM (2 of 3 replicates; controls 5 of 9).

The variant EGDSLRYYYAN / GKNNRPS / SSRCSSGRQVY showed 28 nM (3 of 3 replicates; controls 2 of 9). The variant EGDSLRYPYAN / GKNNRPS / SGRDSSGFQVC gave 6.0 µM (2 of 3 replicates; controls 3 of 9). The variant EGDSFRYYYAN / GKNNRPS / SSRGSSGFQVK gave 8.6 µM (2 of 3 replicates; controls 3 of 9). For IGDSLRYYYAN / GKNNRPS / SSRDSSGHQVW, the assay gave 1.6 µM (2 of 3 replicates; controls 2 of 9). The variant EGDSLRYYYAN / GKNNRPS / SSVESSGFQVQ showed 12 µM (2 of 3 replicates; controls 4 of 9).

With EGDSLCYYYAN / GKNNRLS / SSRDSSGFQVT the result was 6.6 µM (2 of 3 replicates; controls 3 of 9). The variant EGDSLRYYYAN / GKTNRPS / SSRDSSGFCVT gave 3.1 µM (1 of 3 replicates; controls 2 of 9). The variant EGDSLIYYYAN / GKNNRPS / SSRDSSGFQKQ gave 970 nM (1 of 3 replicates; controls 0 of 9). For EGDELRYYHAN / GKNNRPS / SSRDSSGFQVD, the assay gave 7.9 µM (3 of 3 replicates; controls 5 of 9). For EGDSLRYYYAN / GKNNRPS / SSRDSTVFQVW, the assay gave 56 µM (2 of 3 replicates; controls 2 of 9).

The variant EGDSLRYLYAN / GKNYRPS / SSRDSSGFQVW gave 160 nM (3 of 3 replicates; controls 1 of 9). With EGDTLRYYYAK / GKNNRPS / SSRDSSGFQVI the result was nd (0 of 3 replicates; controls 0 of 9). The variant EGDSLLYYYAN / GKNNRPS / SCRDSSGFQVG showed 190 nM (3 of 3 replicates; controls 6 of 9). With EGDSLRYYYAN / GKNNRPS / SSRDSSGFMVN the result was 52 µM (2 of 3 replicates; controls 3 of 9). The variant EGDSLRYYYAN / GKNNRPS / SSRDSSGWQVC gave 2.3 µM (3 of 3 replicates; controls 0 of 9).

With EGDVLRYYYAN / GKNNRPS / SYRDSSGFQVC the result was 5.2 µM (2 of 3 replicates; controls 1 of 9). The variant EGDSLRYYYAN / MKNNRTS / SSRDSSGFQVR gave 130 µM (2 of 3 replicates; controls 3 of 9). With EGDFLRYYYAN / FKNNRPS / SSRDSSGFQVW the result was 9.8 µM (3 of 3 replicates; controls 5 of 9). With EGDSLRYNYAN / GKNNRPV / SSRDSSGFQVV the result was 7.0 nM (3 of 3 replicates; controls 0 of 9). The variant EGDSLRYYYAY / GKNNRPS / SYRDSSGFQVL gave 7.5 µM (2 of 3 replicates; controls 1 of 9).

For EGDSLRYYYAA / GKNNRPS / YSRDSSGFQVQ, the assay gave 3.4 µM (2 of 3 replicates; controls 3 of 9). The variant EGDSLRYYYAI / GKNNRPW / SSRDSSGFQVY gave 15 µM (2 of 3 replicates; controls 2 of 9). The variant EGDSLHYYYAN / GTNNRPS / SSRDSSGFQVE gave 2.7 µM (2 of 3 replicates; controls 4 of 9). The variant EGDSLRYYYAN / GKNNRPS / SSRDSRGFQLN gave 2.3 µM (2 of 3 replicates; controls 3 of 9). For EGDSARYYYAN / GKNNRPS / SSRDVSGFQVH, the assay gave 2.2 µM (3 of 3 replicates; controls 3 of 9).

For reference, 7 entries of the list once more:

EGDSLRYYDAN / GKNNAPS / SSRDSSGFQVH: 430 nM (3 of 3 replicates; controls 0 of 9).
EGDSLRYYYAN / GKNNRPS / SSRDSTVFQVW: 56 µM (2 of 3 replicates; controls 2 of 9).
EGDSLRYYYAN / GKNNRPS / SSRCSSGRQVY: 28 nM (3 of 3 replicates; controls 2 of 9).
EGDSLRYYRAN / GKNNRES / SSRDSSGFQVG: 400 nM (3 of 3 replicates; controls 1 of 9).
ELDSLRYYYAN / GKNNRPS / SSRDSSGAQVG: 4.7 µM (2 of 3 replicates; controls 2 of 9).
EGDSLRYYYAI / GKNNRPW / SSRDSSGFQVY: 15 µM (2 of 3 replicates; controls 2 of 9).
EGPSLRYYYAN / QKNNRPS / SSRDSSGFQVC: 4.6 µM (2 of 3 replicates; controls 5 of 9).